Data as given in patent US9895439B2, “Combined treatment with netrin-1 interfering drug and chemotherapeutic drug” (NETRIS PHARMA, priority 2012, dated 2018).

System: Netrin-1 (NTN1) expression in panel of 15 cancer cell lines
Conditions: drug at IC10, IC30, IC50 or ICMAX, 24 hours

**Q.** With O=c1[nH]cc(F)c(=O)[nH]1 [5FU, 5-Fluorouracil] as the compound, how does the “cancer cell lines with significant (>2 fold over control) increase of netrin-1” value read?
**A.** 36%

**Q.** With N.N.[Cl][Pt][Cl] [Cisplatin] as the compound, how does the “cancer cell lines with significant (>2 fold over control) increase of netrin-1” value read?
**A.** 21%

**Q.** With COc1cccc2c1C(=O)c1c(O)c3c(c(O)c1C2=O)C[C@@](O)(C(=O)CO)C[C@@H]3O[C@H]1C[C@H](N)[C@H](O)[C@H](C)O1 [Doxorubicin] as the compound, how does the “cancer cell lines with significant (>2 fold over control) increase of netrin-1” value read?
**A.** 60%

**Q.** How did the “cancer cell lines with significant (>2 fold over control) increase of netrin-1” value turn out when CC(=O)O[C@H]1C(=O)[C@@]2(C)[C@H]([C@H](OC(=O)c3ccccc3)[C@]3(O)C[C@H](OC(=O)[C@H](O)[C@@H](NC(=O)c4ccccc4)c4ccccc4)C(C)=C1C3(C)C)[C@]1(OC(C)=O)CO[C@@H]1C[C@@H]2O [Taxol, paclitaxel] was run?
**A.** 20%
